Data published in PubChem BioAssay AID1621 (Southern Research Specialized Biocontainment Screening …, 2009).
The list shows a part of the results. Results with a measured potency or affinity are listed apart. Some of these compounds have results that are not shown, active ones among them. The source made the active and inactive calls. How the calls were made is not given here.

Experiment: West Nile virus antiviral activity, cell-based, CPE readout (AID 1621)
Conditions: West Nile virus-infected cells, at 10 µM, stronger effect = higher value

Row | SMILES | CPE inhibition
1 | CN(C)c1ccc(C(=O)NCC2(N(C)C)CCCCC2)cc1 | inactive: -0.13%
2 | CN(C)C1CCCC1OC(=O)C(O)(c1ccccc1)c1ccccc1 (centres undefined) | inactive: 0.5%
3 | Cc1ccccc1C(=O)NCC1(N2CCCCC2)CCCCC1 | inactive: -0.66%
4 | O=C(NCC1(N2CCCCC2)CCCCC1)c1cc(F)c(F)cc1Cl | inactive: -0.37%
5 | C=CCN1CCN(CCOC(=O)C(O)(c2ccccc2)c2ccccc2)CC1 | inactive: -0.1%
6 | O=C(NCC1(N2CCCCC2)CCCCC1)c1cccc(Br)c1 | inactive: -0.3%
7 | CCN1CCCC(OC(=O)C2(O)c3ccccc3C=Cc3ccccc32)C1 (centres undefined) | inactive: 1.15%
8 | Cc1cc(C(=O)NCC2(N3CCCCC3)CCCCC2)ccc1[N+](=O)[O-] | inactive: -0.34%
9 | COc1ccc(C(=O)NCC2(N(C)C)CCCCC2)cc1 | inactive: 0%
10 | O=C(NCC1(N2CCCCC2)CCCCC1)c1cc([N+](=O)[O-])ccc1Cl | inactive: -0.89%
11 | CN1[C@@H]2CC[C@H]1CC(OC(=O)C(O)(c1ccccc1)c1ccccc1)C2 (some centres undefined) | inactive: -0.56%
12 | CC(C)N1C(=O)CC2(CCN(CCOC(=O)C(O)(c3ccccc3)c3ccccc3)CC2)C1=O | inactive: 0.25%
13 | COc1cc(SC)ccc1C(=O)NCC1(N(C)C)CCCCC1 | inactive: -1.08%
14 | CCN(CC)CC(C)C(C)OC(=O)C(O)(c1ccccc1)c1ccccc1 (centres undefined) | inactive: -0.33%
15 | Cc1ccc(C(=O)NCC2(N3CCCCC3)CCCCC2)cc1 | inactive: -0.73%
16 | O=C(OC1CN2CCC1CC2)C(CO)(c1ccccc1)c1ccccc1 (centres undefined) | inactive: 0.25%
17 | COc1ccc(Br)c(C(=O)NCC2(N3CCCCC3)CCCCC2)c1 | inactive: -0.96%
18 | CN(C)c1cccc(C(=O)NCC2(N(C)C)CCCCC2)c1 | inactive: 0.15%
19 | CC(C)Oc1ccc(C(=O)NCC2(N(C)C)CCCCC2)cc1 | inactive: 0.22%
20 | CN(C)C1(CNC(=O)c2ccc(Br)cc2)CCCCC1 | inactive: -0.46%
21 | COc1cc(C(=O)NCC2(N(C)C)CCCCC2)c([N+](=O)[O-])cc1OC | inactive: -0.14%
22 | COc1ccc(Cl)cc1C(=O)NCC1(N(C)C)CCCCC1 | inactive: -0.74%
23 | COc1cccc(C(=O)NCC2(N3CCCCC3)CCCCC2)c1 | inactive: -1.11%
24 | O=C(NCC1(N2CCCCC2)CCCCC1)c1cccc(Cl)c1 | inactive: -0.72%
